Experiments:
[1] = tested on: BaF3 cells expressing myc-tagged neomycin (Neo-Myc); test: MTS cell growth assay, BaF3 expressing myc-tagged neomycin; format: cell-based; conditions: FIGS. 9A/9B; 0-1.0 uM; negative control BaF3 neo-myc
[2] = tested on: BaF3 cells transduced with FLT3/ITD; conditions: FIGS. 9A/9B; 0-1.0 uM; negative control BaF3 FLT3-ITD
[3] = tested on: BaF3 cells expressing FIG-ROS1(S); test: MTS cell growth assay, BaF3 expressing FIG-ROS1(S); conditions: FIGS. 9A/9B, 0-1.0 uM, same concentration of each
[4] = tested on: BaF3 cells expressing FIG-ROS1(L); test: MTS cell growth assay, BaF3 expressing FIG-ROS1(L); conditions: FIGS. 9A/9B, 0-1.0 uM, same concentration of each

C[C@@H](Oc1cc(-c2cnn(C3CCNCC3)c2)cnc1N)c1c(Cl)ccc(F)c1Cl [crizotinib]
cellular growth response, compared with FIG-ROS1 BaF3 and Karpas 299 cells [1]: less sensitive | cellular growth response, compared with FIG-ROS1 BaF3 and Karpas 299 cells [2]: less sensitive | cellular growth response, TAE-684 compared with crizotinib [3]: more sensitive to TAE-684 than to crizotinib | cellular growth response, TAE-684 compared with crizotinib [4]: more sensitive to TAE-684 than to crizotinib
